Assay results from ChEMBL document CHEMBL4368868, “Selected aryl thiosemicarbazones as a new class of multi-targeted monoamine oxidase inhibitors” (Medchemcomm, 2018).

By UniProt entry, the sequences of proteins in these tests, tags left out.
UniProt P21397, whole entry: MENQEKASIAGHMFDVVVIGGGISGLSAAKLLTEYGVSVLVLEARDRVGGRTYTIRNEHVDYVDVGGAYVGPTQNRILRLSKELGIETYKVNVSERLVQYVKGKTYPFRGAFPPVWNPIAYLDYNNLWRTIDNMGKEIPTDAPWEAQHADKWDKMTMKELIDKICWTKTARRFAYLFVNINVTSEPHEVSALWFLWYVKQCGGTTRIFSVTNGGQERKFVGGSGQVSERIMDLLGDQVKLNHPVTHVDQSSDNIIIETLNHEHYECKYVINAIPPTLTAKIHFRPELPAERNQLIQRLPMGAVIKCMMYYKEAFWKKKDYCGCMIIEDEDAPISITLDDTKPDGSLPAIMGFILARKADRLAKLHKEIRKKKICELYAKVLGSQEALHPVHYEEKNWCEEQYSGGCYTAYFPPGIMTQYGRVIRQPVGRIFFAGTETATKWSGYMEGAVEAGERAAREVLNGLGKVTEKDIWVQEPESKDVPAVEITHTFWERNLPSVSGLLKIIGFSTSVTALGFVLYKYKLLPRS

Biological target: Amine oxidase [flavin-containing] A (Homo sapiens, UniProt P21397)

C#CCN(C)Cc1ccccc1 [PARGYLINE]
pIC50: 5.88

pIC50: −log10 of the molar value.
